The source of these data is PubChem BioAssay AID602340 (Broad Institute, 2012).

This is a selection; strong and weak results do not stand in their true shares. Calls of active or inactive are those of the source.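 Rule for the calls: active = mean ATP rescue above about 67%, or every replicate alone reaching that limit (limit read from the data, passing the limit was not always enough); inconclusive = no clear call, values can overlap the other calls; inactive = mean under the limit and some replicate under it.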

This assay can be described thus: protection of differentiated C2C12 cells from simvastatin – single point, plate reader, primary screen (AID 602340).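 Note: myotubes were challenged with 10 µM simvastatin during compound exposure.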 Conditions: C2C12 myotubes + simvastatin, ATP luminescence, 48 h; at 7.49 µM; stronger effect = higher value; scaled: DMSO 0, geranylgeraniol control 100.
On to `CCCCOc1ccc(C(=O)NCC2(N3CCCCC3)CCCCC2)cc1OC`, for which the rescue of ATP level was inactive: 4.62%.
Turning to `CCOC(=O)Nc1cccc([As](=O)(O)O)c1`, the rescue of ATP level is inactive: -6.59%.
In the case of `O=[N+]([O-])c1ccc(Nc2ccc(Oc3ccc([N+](=O)[O-])cc3[N+](=O)[O-])cc2)c([N+](=O)[O-])c1`, the rescue of ATP level was inactive: -1.02%.
With `O=P1(N(CCCl)CCCl)OCCCS1` (centres undefined), the rescue of ATP level is inactive: -2.31%.
For `O=C(Nc1cc([As](=O)(O)O)ccc1O)c1ccccc1`, the rescue of ATP level was inactive: -9.7%.
For `CC(C)(C)C(=O)NC(Sc1ccncn1)C(Cl)(Cl)Cl` (centres undefined) the value was inactive: -2.09%; for `O=C(O)CNc1ccc([As](=O)(O)O)cc1`, inactive: -2.25%; for `O=[N+]([O-])c1cccc(NC2=NCC(CBr)S2)c1` (centres undefined), inactive: 4.31%.
The value for `COc1ccc(C2=NCC(CBr)S2)cc1` (centres undefined) was inactive: 4.85%; that for `CCc1nc2c(n1)c1c(non1O)c1c2no[n+]1[O-]` was inactive: -2.46%.
Consider `CC(=O)N1C2C3N(C(C)=O)C1C1N(C(C)=O)C(C(N1C(C)=O)N3C(C)=O)N2C(C)=O`, for which the rescue of ATP level was inactive: -12.8%.
`O=[N+]([O-])c1cccc2n[nH]nc12`: the rescue of ATP level is inactive: -11.3%.
On to `Nc1ccc([As](=O)(O)c2ccc(N)cc2)cc1`, for which the rescue of ATP level is inactive: -0.884%.
Turning to `CC1CCN(C(=O)Oc2c(Cl)cc(Cl)c3cccnc23)CC1`, the rescue of ATP level was inactive: 5.56%.
Regarding `c1cc(-c2nn[nH]n2)ccc1-c1nn[nH]n1`, the rescue of ATP level was inactive: -6.03%.
Consider `CC(C)c1nc(Nc2ccccc2)n(P(=O)(N(C)C)N(C)C)n1`, for which the rescue of ATP level is inactive: 1.16%.
With `Cc1ccc(N/C(=N/P(=O)(N2CCOCC2)N2CCOCC2)N2CCOCC2)cc1`, the rescue of ATP level was inactive: 0.709%.
The value for `CN(C(=O)Cc1ccc(Cl)c(Cl)c1)[C@H]1CCCC[C@H]1N1CCCC1` was inactive: -2.62%.
The value for `CN1CCCC(OC(=O)C(c2ccccc2)c2ccccc2)C1` (centres undefined) was inactive: 9.18%; that for `Clc1ccc(Cl)c(NC2=NCC(CBr)S2)c1` (centres undefined) was inactive: -5.49%; that for `Cc1ccc(OP(=O)(Nc2nccs2)Oc2ccc(C)cc2)cc1` was inactive: 20.4%.
For the compound `Oc1ccccc1CNc1ccccn1`, the rescue of ATP level was inactive: 0.0705%.
In the case of `CC(C)CC(=O)NC(Sc1ccc(Cl)cc1)C(Cl)(Cl)Cl` (centres undefined), the rescue of ATP level was inactive: -16.7%.
Take `O=P(Nc1nc2ccc(Cl)cc2s1)(c1ccccc1)c1ccccc1`: the rescue of ATP level is inactive: 15.8%.
For `CN(C)P(=O)(N(C)C)n1c(Nc2ccccc2)nnc1-c1ccccc1`, the rescue of ATP level was inactive: -0.201%.
On to `CCCC1OP(N)(=O)OCC1CC` (centres undefined), for which the rescue of ATP level is inactive: 3.97%.
For the compound `CC(=O)Nc1ccc([As](=O)(O)O)cc1`, the rescue of ATP level was inactive: -3.83%.
Regarding `O=C(O)c1ccccc1[As](=O)(O)O`, the rescue of ATP level was inactive: 0.361%.
For `CN(C(=O)Cc1ccc(Cl)c(Cl)c1)[C@H]1CCCC[C@@H]1N1CCCC1` the value was inactive: -5.46%; for `Cc1ccc(NP(=O)(Oc2ccccc2F)Oc2ccccc2F)nc1`, inactive: -9.75%; for `CCOP(=O)(Nc1ccccc1)OCC`, inactive: 3.56%.
As for `Nc1cccc2ccc([As](=O)(O)O)cc12`, the rescue of ATP level is inactive: -0.16%.
Take `CCNC(=S)/N=C(\N)N[N+](=O)[O-]`: the rescue of ATP level is inactive: -13.4%.
For `O=P1(N(CCCl)CCCl)OCCC2CCCCN21` (centres undefined) the value was inactive: -1.03%; for `CCC(=O)N1C2C3N(C(=O)CC)C1C1N(C(=O)CC)C(C(N1C(=O)CC)N3C(=O)CC)N2C(=O)CC`, inactive: -3.78%; for `O=C(OC1CN2CCC1CC2)c1ccccc1` (centres undefined), inactive: 11.8%.
Take `COC(=O)c1cc2c(s1)N=C(c1ccccc1)N(C)P2(=O)N1CCOCC1` (centres undefined): the rescue of ATP level is inactive: 3.51%.
With `CC(NC(=O)COC(=O)C(O)(c1ccccc1)c1ccccc1)c1ccccc1` (centres undefined), the rescue of ATP level was inactive: 8.98%.
For `O=P1(Nc2nc3ccc(Cl)cc3s2)COc2ccccc2O1` (centres undefined), the rescue of ATP level is inactive: 8.46%.
As for `CCc1cc(O)c([N+](=O)[O-])c(C)c1[N+](=O)[O-]`, the rescue of ATP level is inactive: 8.9%.
Turning to `C[C@H]1OP(=O)(Oc2ccccc2)C[C@@H]2O[C@@H]21` (some centres undefined), the rescue of ATP level was inactive: -6.86%.
On to `C[C@@H]1C=CCP(=O)(Oc2ccccc2)O1` (some centres undefined), for which the rescue of ATP level is inactive: -2.74%.
For `Cc1ccccc1CN(C)C(=O)COC(=O)C(O)(c1ccccc1)c1ccccc1` the value was inactive: -1.14%; for `CC(=O)c1ccc(N2CC2c2ccncc2)cc1` (centres undefined), inactive: 2.01%; for `CC(=O)Nc1ccc(Oc2c([N+](=O)[O-])cc([N+](=O)[O-])cc2[N+](=O)[O-])cc1`, inactive: -1.4%.
For the compound `CC(=O)Nc1ccc([As](=O)(O)O)c(O)c1`, the rescue of ATP level was inactive: 11.1%.
In the case of `O=P(Nc1nccs1)(c1ccccc1)c1ccccc1`, the rescue of ATP level was inactive: 2.42%.
For `c1nnnn1CCn1cnnn1` the value was inactive: -15.9%; for `CN(C)C1(CNC(=O)c2ccc(Cl)c(S(N)(=O)=O)c2)CCCCC1`, inactive: 2.68%.
The value for `O=P(Nc1ccccn1)(c1ccc(Br)cc1)c1ccc(Br)cc1` was inactive: 7.33%.
Regarding `COc1ccc(N)c([N+](=O)[O-])c1[N+](=O)[O-]`, the rescue of ATP level was inactive: -7.37%.
The value for `Nc1ccc(CCCCOc2ccccc2)cc1` was inactive: 19.3%.
For `C[C@H]1OP(=O)(Oc2ccccc2)[C@H](O)[C@H](O)[C@H]1N=[N+]=[N-]` (some centres undefined), the rescue of ATP level was inactive: -0.0735%.
For `O=P(Nc1nc2ccccc2s1)(c1ccccc1)c1ccccc1`, the rescue of ATP level was inactive: 28.8%.
The value for `O=[As](O)(c1ccccc1)c1ccc(O)cc1` was inactive: 6.82%; that for `O=[N+]([O-])c1ncn(CCn2cnc([N+](=O)[O-])n2)n1` was inactive: 2.8%.
Take `O=[N+]([O-])c1ccc(O)c(/C=N/Nc2ccc([N+](=O)[O-])cc2[N+](=O)[O-])c1`: the rescue of ATP level was inactive: -86.5%.
As to `O=C(OC1CN2CCC1CC2)c1cccc(Cl)c1` (centres undefined), the rescue of ATP level is inactive: -11.9%.
As for `Nc1ccc([As](=O)(O)c2ccc([N+](=O)[O-])cc2)cc1`, the rescue of ATP level is inactive: 3.71%.
